Measured values published in article doi:10.1101/2025.03.18.643923, “Widely used CaMKII regulatory segment mutations cause tight actinin binding and dendritic spine enlargement in unstimulated neurons” (bioRxiv, 2025).

Protein sequences, listed by entry. Tags and fused reporters are not part of them. Residues count along the entry.
UniProt P11275, 1-315 T305A/T306A: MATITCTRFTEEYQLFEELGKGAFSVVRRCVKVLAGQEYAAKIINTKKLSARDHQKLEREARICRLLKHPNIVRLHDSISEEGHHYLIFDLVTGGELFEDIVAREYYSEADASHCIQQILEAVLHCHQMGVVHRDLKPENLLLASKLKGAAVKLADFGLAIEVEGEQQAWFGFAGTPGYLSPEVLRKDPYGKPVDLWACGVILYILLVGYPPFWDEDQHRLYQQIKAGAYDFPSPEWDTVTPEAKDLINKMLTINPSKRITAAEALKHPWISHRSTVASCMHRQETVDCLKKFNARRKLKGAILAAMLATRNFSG

Target: Trx-CaMKIIα (1-315) T305A/T306A (UniProt P11275 1-315, T305A | T306A)
Test: ITC; MicroCal PEAQ, 25 mM HEPES pH 7.5, 150 mM NaCl, 2 mM MgCl2, 1 mM ADP; syringe 300 μM EF3-4, cell 30 μM Trx-CaMKIIα 1–315; single site binding model
Settings: both partners purified

Kd: 154 nM
B1: Human α-actinin-2 EF3-4 (positions 827-894) (domain or fragment, UniProt P35609 827-894, looked up)
chain: TAEQVIASFRILASDKPYILAEELRRELPPDQAQYCIKRMPAYSGPGSVPGALDYAAFSSALYGESDL
notes: α-actinin-2, human, third and fourth EF hands, positions 827-894; also called α-actinin-2 EF hands 3-4; source: E. coli Rosetta pLysS, purified (Ni-NTA, Glutathione Sepharose, Tev cleavage, Superdex 75); not shown: His, N-terminal, cleaved; GST, N-terminal, cleaved
